The values below come from ChEMBL document CHEMBL1127515, “The [(methyloxy)imino]methyl moiety as a bioisoster of aryl. A novel class of completely aliphatic beta-adrenergic receptor antagonists” (J Med Chem, 1994).

Protein sequences, listed by entry. Tags and fused reporters are not part of them.
UniProt Q28044, whole entry: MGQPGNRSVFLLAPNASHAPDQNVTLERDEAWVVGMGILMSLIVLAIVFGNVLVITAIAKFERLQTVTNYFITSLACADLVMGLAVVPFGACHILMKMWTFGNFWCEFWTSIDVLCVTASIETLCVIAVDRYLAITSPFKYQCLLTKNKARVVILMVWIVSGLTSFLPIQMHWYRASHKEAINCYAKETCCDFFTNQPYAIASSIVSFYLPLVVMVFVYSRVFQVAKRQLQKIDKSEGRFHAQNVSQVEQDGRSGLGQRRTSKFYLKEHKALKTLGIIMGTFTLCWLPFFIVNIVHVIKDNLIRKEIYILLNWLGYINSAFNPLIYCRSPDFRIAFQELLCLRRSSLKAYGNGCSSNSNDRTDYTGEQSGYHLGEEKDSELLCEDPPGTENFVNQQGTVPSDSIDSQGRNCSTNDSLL

Each structure is given as a SMILES string.

The assay addresses Beta-2 adrenergic receptor (Bos taurus, UniProt Q28044). As to the kind of experiment: Binding affinity against beta-2-adrenergic receptor in bovine lung.

One may read the Ki as the equilibrium dissociation constant of an inhibitor or competing ligand from its target. For the molecule `CCCO/N=C/C(O)CNC(C)(C)C` (stereo unspecified), the affinity, expressed as Ki, was 850 nM.
